Measured affinities in a library of Ab-14 heavy chain variants

The target is the same throughout: PDVDLGDISGINAS, from the HR2 region of SARS-CoV-2 spike.

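Phage display of a naive human antibody library on the peptide gave the parent. This is the validation round: designs drawn from the data on random variants, tested in the same kind of assay. Group labels follow the data file (En: ensemble of fine-tuned language models; HC: hill climbing; Gen: genetic algorithm; Gibbs: Gibbs sampling; a sequence that several methods proposed may carry one label only). AlphaSeq pools MATa yeast showing the antibodies with MATalpha yeast showing the peptide. The frequency of each diploid, read from paired DNA barcodes, reflects how well the two displayed proteins bind. The ratio of observed to expected reads was calibrated, replicate by replicate, on BCL2-family standards whose Kd was known from biolayer interferometry. There are six technical replicates.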

Parent scFv Ab-14: VH joined to VL by three GGGGS repeats. Changes lie in the heavy chain CDRs alone.
VH: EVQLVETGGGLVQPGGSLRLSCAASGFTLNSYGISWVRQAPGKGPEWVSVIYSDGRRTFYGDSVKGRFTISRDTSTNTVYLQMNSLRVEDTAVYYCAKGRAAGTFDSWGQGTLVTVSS
VL: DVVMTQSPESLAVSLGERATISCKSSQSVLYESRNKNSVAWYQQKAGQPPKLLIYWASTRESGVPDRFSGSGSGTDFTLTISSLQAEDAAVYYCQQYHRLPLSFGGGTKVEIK

Variants are written as CDR1, CDR2 and CDR3 of the heavy chain (limits as in the source). Parent: GFTLNSYGIS, VIYSDGRRTFYGDSVK, GRAAGTFDS. Variants here have more than six changes. The Kd shown is the geometric mean over detected replicates; a lower Kd is a better binder. An entry "no signal" has no value in the source: the pair was not observed among the diploids in any replicate. This suggests poor binding but is not conclusive. Values of this round are not directly comparable with the first-round values of the same sequences. The authors averaged sequences with at least three values out of six and counted those with two or fewer as poor binders. As a blank, each scFv also met three strains without target: over all heavy chain designs, 1% of these pairings were detected, typically at 120 nM and seldom below 7.0 nM.

With GFDLNEYGIS | VIYADGKRTAYTDDVK | GNVAGTFDV [En_Gen] the result was 360 pM (6 of 6 replicates). For GFDLNEYGIS | VIYADGVRKAYADNVK | GENAGTFDV [En_Gen], the assay gave 320 pM (6 of 6 replicates). For GFDLNEYGIS | VIYADGMRTAYADSVK | GSVAGTFDL [En_Gen], the assay gave 240 pM (6 of 6 replicates). For GFDLNEYGIS | VIYADGRRTFYSDSVK | GEVAGTFVQ [En_HC], the assay gave 610 pM (6 of 6 replicates). The variant GKGLDEYGIS | VIYADGMRTEYQQSVK | GDTGSIFFV [En_Gibbs] showed no signal (0 of 6 replicates). The variant GFDLNEYGIS | VIYADGRRTFYADSVK | GTNGGTFDM [En_HC] gave 550 pM (6 of 6 replicates).

The variant GFDLQEYGIS | VIYADGSRTAYNQNVK | GLTLDSYVV [En_Gibbs] gave no signal (0 of 6 replicates). For GKGLDEYGVS | VIYADGVRKSYVDDVK | GGIAGNFLY [En_Gibbs], the assay gave no signal (0 of 6 replicates). The variant GFDLNEYGIS | VIYADGQRSAYADSVK | GNVAGTFDV [En_Gen] gave 210 pM (6 of 6 replicates). The variant GFGIDDYGIS | VIYADGQRKMYQDNVK | GNVGSLFSV [En_Gibbs] showed no signal (0 of 6 replicates). For GFDLNEYGIS | VIYADGMRTSYADNVK | GNVAGTFDV [En_Gen], the assay gave 510 pM (6 of 6 replicates). With GFDLNEYGIS | VIYADGIRTAYADSVK | GNAAGTFDV [En_HC] the result was 370 pM (6 of 6 replicates).

With GFDLNEYGIS | VIYADGVRTVYADSVK | GNVAGTFDQ [En_Gen] the result was 260 pM (6 of 6 replicates). The variant GFDLNEYGIS | VIYADGVRTSYADSVK | GNEAGTFDV [En_Gen] gave 280 pM (6 of 6 replicates). For GFQIDEYGIS | VIYADGARASYAADVK | GSVDGVGLT [En_Gibbs], the assay gave no signal (0 of 6 replicates). The variant GFDLNEYGIS | VIYADGRRTFYSDSVK | GQLAGTFDN [En_HC] gave 250 pM (6 of 6 replicates). The variant GFDLKEYGIS | VIYADGRRTEYDNDVK | GQVAGIFLD [En_Gibbs] showed no signal (0 of 6 replicates). With GFDLDEYGIS | VIYADGQRTFYADSVK | GNVAGTFDV [En_Gen] the result was 490 pM (6 of 6 replicates).

The variant GFDLNEYGIS | VIYADGMRTVYADSVK | GQVAGTFDL [En_Gen] gave 250 pM (6 of 6 replicates). For GFDLNEYGIS | VIYADGQRTAYSDSVK | GEVAGTFDI [En_Gen], the assay gave 500 pM (6 of 6 replicates). With GFDLNEYGIS | VIYADGMRKYYADSVK | GNQAGTFDV [En_Gen] the result was 23 pM (6 of 6 replicates). The variant GFDLDEYGIS | VIYADGMRTAYIDSVK | GNVAGTFDV [En_Gen] showed 390 pM (6 of 6 replicates). The variant GEDLMEYGIS | VIYADGERRSYANSVK | GGVSGNFSS [En_Gibbs] showed no signal (0 of 6 replicates). For GFDLEEYGIS | VIYADGMRTAYADSVK | GNNAGTFDL [En_Gen], the assay gave 450 pM (6 of 6 replicates).

With GFDLNEYGIS | VIYADGQRKAYADDVK | GNQAGTFDV [En_Gen] the result was 260 pM (6 of 6 replicates). With GFDLNEYGIS | VIYADGVRTAYADSVK | GKVAGTFDS [En_HC] the result was 400 pM (6 of 6 replicates). With GFDLNEYGIS | VIYADGRRTFYSDNVK | GQNAGTFDV [En_HC] the result was 370 pM (6 of 6 replicates). With GFNLDEYGIS | VIYADGGRVAYAQNVK | GLVGKGGDL [En_Gibbs] the result was no signal (0 of 6 replicates). The variant GFDLNEYGIS | VIYADGKRTAYADNVK | GNVAGTFDT [En_Gen] gave 450 pM (6 of 6 replicates). The variant GFDLDEYGIS | VIYADGKRTAYADDVK | GEVAGTFDT [En_Gen] gave 160 pM (6 of 6 replicates).

For GFDLNEYGIS | VIYADGQRTAYSDSVK | GQVAGTFDV [En_Gen], the assay gave 270 pM (6 of 6 replicates). The variant GFDIDEYGIS | VIYADGRRTFYADSVK | GTNAGTFDL [En_HC] gave 230 pM (6 of 6 replicates). For GFKLDEYGIS | VIYADGKRTAYADHVK | GGGTTDRGI [En_Gibbs], the assay gave no signal (0 of 6 replicates). For GFDLNEYGIS | VIYADGVRTAYADSVK | GKNAGTFDV [En_Gen], the assay gave 530 pM (6 of 6 replicates). With GQDINEYGIS | VIYADGIRSAYAQSVK | GYHGSQFDI [En_Gibbs] the result was no signal (0 of 6 replicates).

The opening 5 entries, copied out:

CDR-H1,CDR-H2,CDR-H3,group,Kd (apparent),seen in
GFDLNEYGIS,VIYADGKRTAYTDDVK,GNVAGTFDV,En_Gen,360 pM,6/6
GFDLNEYGIS,VIYADGVRKAYADNVK,GENAGTFDV,En_Gen,320 pM,6/6
GFDLNEYGIS,VIYADGMRTAYADSVK,GSVAGTFDL,En_Gen,240 pM,6/6
GFDLNEYGIS,VIYADGRRTFYSDSVK,GEVAGTFVQ,En_HC,610 pM,6/6
GKGLDEYGIS,VIYADGMRTEYQQSVK,GDTGSIFFV,En_Gibbs,no signal,0/6

Reference: Li et al. 2023, doi:10.1038/s41467-023-39022-2. File: FLAb, binding data.